# Molecular target: gp130 receptor (Homo sapiens, UniProt P40189)
# Amino acid sequences for entries named in this document (tags omitted). Residues count along the entry.
# UniProt P40189, 23-918 limits assumed: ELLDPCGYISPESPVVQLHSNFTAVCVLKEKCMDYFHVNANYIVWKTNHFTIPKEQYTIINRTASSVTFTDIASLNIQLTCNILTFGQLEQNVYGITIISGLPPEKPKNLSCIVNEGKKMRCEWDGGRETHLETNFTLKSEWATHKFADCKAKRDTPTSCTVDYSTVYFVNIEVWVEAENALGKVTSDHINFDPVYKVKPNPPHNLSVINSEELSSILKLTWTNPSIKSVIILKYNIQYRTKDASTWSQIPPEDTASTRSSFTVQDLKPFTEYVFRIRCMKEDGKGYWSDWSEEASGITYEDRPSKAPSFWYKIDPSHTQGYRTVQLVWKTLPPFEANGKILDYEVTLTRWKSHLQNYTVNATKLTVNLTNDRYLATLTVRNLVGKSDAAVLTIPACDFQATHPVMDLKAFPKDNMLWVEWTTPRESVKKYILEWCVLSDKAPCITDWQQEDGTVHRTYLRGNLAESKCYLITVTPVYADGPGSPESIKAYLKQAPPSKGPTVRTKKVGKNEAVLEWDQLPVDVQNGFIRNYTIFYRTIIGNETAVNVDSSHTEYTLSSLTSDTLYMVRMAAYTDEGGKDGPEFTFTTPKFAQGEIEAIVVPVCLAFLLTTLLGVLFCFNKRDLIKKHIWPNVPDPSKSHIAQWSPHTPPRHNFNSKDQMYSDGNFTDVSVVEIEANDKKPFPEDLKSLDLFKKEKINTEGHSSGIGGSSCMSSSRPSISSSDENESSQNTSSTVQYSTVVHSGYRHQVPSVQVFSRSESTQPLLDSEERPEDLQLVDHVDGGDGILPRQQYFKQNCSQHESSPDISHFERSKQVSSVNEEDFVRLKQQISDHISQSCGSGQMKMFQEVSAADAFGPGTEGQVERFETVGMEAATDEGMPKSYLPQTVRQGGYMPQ
# Experiment: p-gp130 (p-Tyr) ELISA, HTS validation and dose response in U87-MG cells
# Conditions: read-out: EC50 (p-gp130 enhancement), FIG. 6 screening of analogs
# Excerpt: An ELISA assay for the evaluation of the p-gp130 levels was developed. This was a commercial ELISA—DuoSet ELISA from R&D systems (cat #DYC3407-2) and detected the tyrosine phosphorylation of gp130. […] In addition, a commercially available p-AKT (1,2,3) AlphaLISA kit was used (PE cat #ALSU-PAKT-B-HV) for the HTS assay.
# Small molecules that act as HN mimetics represent a new class of AD therapeutics. Through screening, validated hits that increase both p-gp-130 and p-Akt levels were identified. Human glioblastoma cells were used, U87-MG. Several hits that enhance p-gp 130 were identified as well as several compounds that can increase p-AKT (FIG. 3).
# Into a 96 well plate was added 99 μL of warm DMEM/F12 without FBS, then 1 uL of compounds at 1 mM were loaded into the96 well plate. These generated the compounds at 2×. Into a 96 well plate was added IL6/IL6R solution to achieve 6.6×10−4 mg/mL and 3.3×10−4 mg/mL respectively, this is 2× concentration. For this, primary EL6 stock (0.1 mg/mL) was diluted150-fold and IL6R stock (0.1 mg/mL) 300-fold to treat cells with final concentration of 6.6×10−4 mg/mL and 3.3×10−4 mg/mL respectively. 10 ml of Sample Diluent Concentrate 2 (2X)(Part #895891/DYC002)+10 ml ddH2O+200 ul of 100 mM activated Na3VO4 (aliquots at −20C)+20 ul of 10 mg/ml aprotinin (stock at 4C)+20 ul of 10 mg/ml leupeptin (aliquots at −20C)+200 ul PIC-protected from light. […]
smiles,measurement,value
CCC(=O)Nc1ccc2nc(C)n(-c3cccc(Br)c3)c(=O)c2c1,EC50,< 100 nM

# Source: US20260317384A1, “SMALL MOLECULE HUMANIN MIMETICS” (The Regents of the University Of California, priority 2023, published 2026)
